Values quoted from earlier work, collected in patent US20220175776A1 (Frequency Therapeutics, Inc., priority 2019, published 2022).

Protein sequences, listed by entry. Tags and fused reporters are not part of them.
UniProt O75530, whole entry: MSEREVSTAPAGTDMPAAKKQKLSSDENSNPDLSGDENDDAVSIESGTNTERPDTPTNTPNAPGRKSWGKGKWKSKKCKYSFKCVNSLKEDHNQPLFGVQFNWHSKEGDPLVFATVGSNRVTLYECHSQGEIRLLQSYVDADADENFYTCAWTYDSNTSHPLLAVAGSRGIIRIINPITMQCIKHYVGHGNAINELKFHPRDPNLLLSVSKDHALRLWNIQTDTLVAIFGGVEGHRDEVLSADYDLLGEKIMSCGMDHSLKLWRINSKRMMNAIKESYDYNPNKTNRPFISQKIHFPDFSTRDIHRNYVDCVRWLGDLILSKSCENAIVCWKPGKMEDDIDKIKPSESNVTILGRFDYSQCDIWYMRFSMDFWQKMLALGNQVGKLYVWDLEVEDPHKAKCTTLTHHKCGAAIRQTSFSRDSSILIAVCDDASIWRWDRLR
UniProt Q15910, whole entry: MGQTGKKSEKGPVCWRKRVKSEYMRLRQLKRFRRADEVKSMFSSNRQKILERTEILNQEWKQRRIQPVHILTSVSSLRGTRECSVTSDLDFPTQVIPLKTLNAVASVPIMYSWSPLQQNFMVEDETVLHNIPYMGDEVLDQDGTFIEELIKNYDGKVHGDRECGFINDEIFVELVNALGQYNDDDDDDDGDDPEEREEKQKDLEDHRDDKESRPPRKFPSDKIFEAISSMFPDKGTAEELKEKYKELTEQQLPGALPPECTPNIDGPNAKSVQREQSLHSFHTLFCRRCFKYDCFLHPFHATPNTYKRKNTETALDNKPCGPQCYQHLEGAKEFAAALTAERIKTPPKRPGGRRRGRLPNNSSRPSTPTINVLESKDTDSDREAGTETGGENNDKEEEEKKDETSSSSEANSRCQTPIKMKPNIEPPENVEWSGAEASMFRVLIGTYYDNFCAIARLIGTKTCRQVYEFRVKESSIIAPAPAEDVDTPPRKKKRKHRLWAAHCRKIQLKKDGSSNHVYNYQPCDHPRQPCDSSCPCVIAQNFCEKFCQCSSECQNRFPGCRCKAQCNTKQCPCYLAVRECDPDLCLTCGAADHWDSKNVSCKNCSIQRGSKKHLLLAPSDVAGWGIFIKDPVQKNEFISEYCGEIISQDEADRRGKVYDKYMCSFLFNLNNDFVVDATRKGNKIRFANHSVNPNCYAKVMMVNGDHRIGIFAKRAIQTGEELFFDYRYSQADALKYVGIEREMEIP
UniProt P27338, whole entry: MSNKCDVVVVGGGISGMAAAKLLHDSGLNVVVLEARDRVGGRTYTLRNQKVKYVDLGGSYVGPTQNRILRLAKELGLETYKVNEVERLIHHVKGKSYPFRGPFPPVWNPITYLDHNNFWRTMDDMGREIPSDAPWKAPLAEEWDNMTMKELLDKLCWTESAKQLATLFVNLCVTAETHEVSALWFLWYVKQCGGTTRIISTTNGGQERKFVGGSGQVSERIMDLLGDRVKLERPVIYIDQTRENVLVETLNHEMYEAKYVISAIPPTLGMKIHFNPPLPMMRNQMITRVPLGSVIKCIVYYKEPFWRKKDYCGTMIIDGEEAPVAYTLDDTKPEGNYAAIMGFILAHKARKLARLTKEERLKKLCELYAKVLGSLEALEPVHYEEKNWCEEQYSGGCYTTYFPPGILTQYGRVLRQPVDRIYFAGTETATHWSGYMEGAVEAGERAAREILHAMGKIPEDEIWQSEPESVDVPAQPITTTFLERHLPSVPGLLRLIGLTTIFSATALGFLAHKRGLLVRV

Legend:
[1] = biological target: EZH2 (Homo sapiens, UniProt O75530+Q15910); details: Table 7; includes EED, SAM-competitive and SAH-hydrolase inhibitors; read-out: pKi or IC50 (converted); cited from earlier work
[2] = biological target: MAO B (Homo sapiens, UniProt P27338); details: Table 6; marked B or second value of cell; read-out: Select MAOs A and B: MAO B; cited from earlier work

| Structure (SMILES) | IC50 [1] [µM] | pIC50 [2] |
| --- | --- | --- |
| CCN(c1cc(C#CCN2CCOCC2)cc(C(=O)NCc2c(C)cc(C)[nH]c2=O)c1C)[C@H]1CC[C@H](N(C)CCOC)CC1 [EPZ-011989] | < 0.003 | – |
| N[C@H]1CC[C@H](N[C@@H]2C[C@H]2c2ccccc2)CC1 [ORY-1001] | – | < 4.00 |

pIC50: −log10 of the molar value.
